# Reference: patent publication US20070213402A1, “Compounds which interact with the thyroid hormone receptor for the treatment of fibrotic disease” (priority 1998, published 2007)
# Biological target: T1, glucocorticoid receptor (Homo sapiens, UniProt P04150)
# T1 construct: expressed in transfected cells; host or cells: CV1 (transformed African Green Monkey kidney cell line)
# T1 sequence (P04150 1-777): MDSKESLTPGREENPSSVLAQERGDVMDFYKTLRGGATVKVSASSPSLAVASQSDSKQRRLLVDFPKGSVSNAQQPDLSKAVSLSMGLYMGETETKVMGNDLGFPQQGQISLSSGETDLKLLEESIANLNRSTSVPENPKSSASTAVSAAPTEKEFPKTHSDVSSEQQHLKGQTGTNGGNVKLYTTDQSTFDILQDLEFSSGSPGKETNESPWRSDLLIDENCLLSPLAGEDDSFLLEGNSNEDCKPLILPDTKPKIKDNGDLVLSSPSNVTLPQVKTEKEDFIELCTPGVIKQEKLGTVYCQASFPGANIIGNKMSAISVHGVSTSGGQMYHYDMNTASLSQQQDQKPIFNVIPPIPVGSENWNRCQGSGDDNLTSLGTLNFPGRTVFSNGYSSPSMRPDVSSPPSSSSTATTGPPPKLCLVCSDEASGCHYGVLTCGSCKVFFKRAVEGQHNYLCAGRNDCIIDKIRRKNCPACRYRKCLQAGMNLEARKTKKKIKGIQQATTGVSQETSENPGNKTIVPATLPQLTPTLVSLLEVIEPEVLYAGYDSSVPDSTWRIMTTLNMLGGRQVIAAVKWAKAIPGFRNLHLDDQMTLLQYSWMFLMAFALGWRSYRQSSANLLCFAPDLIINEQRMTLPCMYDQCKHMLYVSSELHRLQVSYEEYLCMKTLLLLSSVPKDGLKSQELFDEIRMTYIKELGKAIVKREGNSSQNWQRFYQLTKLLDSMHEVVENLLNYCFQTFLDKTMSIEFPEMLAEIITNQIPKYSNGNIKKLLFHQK
# Experiment: Experiment 2: PGL3MMTV-luciferase transactivation in CV1 cells with glucocorticoid receptor (GR1)
# Format: cell-based
# Settings: substance alone at 10^-7M
structure (smiles),measurement,setting,value
"C[C@@H]1C[C@H]2[C@@H]3CCC4=CC(=O)C=C[C@]4(C)[C@@]3(F)[C@@H](O)C[C@]2(C)[C@@]1(O)C(=O)CO [Dex, dexamethazone, reference compound]",Raw counts (GR1),,619085 counts
same,% control (GR1),Blank = 100,17346%
